By inhibition is commonly meant the share of the control response that was lost under treatment.

The text below walks through data of patent US5159002A, “Method for purifying dermostatin A and dermostatin B” (Xechem Inc., priority 1990, dated 1992).

The subject of assay [1] is HIV antigen p17. Description: microbe, parasite or virus in culture. To be noted: for activity at 0.01 µg/mL / activity at 0.1 µg/mL / activity at 1 µg/mL / activity at 5 µg/mL: Human immunodeficiency virus 1, H9, 96 h, read-out: % Viral Activity, p17; for inhibition at 0.01 µg/mL / inhibition at 0.1 µg/mL / inhibition at 1 µg/mL / inhibition at 5 µg/mL: Human immunodeficiency virus 1, H9, read-out: % Inhibition, p17. The assay is classed as cell-based.

Assay [2] deals with HIV virus. To be noted: cited from earlier work.
In assay [3] the test system is HIV antigen p24. Description: microbe, parasite or virus in culture. The class given is cell-based. The conditions noted are these: for % Viral Activity, p24: h9 cells, 5760 min; for activity at 0.01 µg/mL / activity at 0.1 µg/mL / activity at 1 µg/mL / activity at 5 µg/mL: Human immunodeficiency virus 1, H9, 96 h, read-out: % Viral Activity, p24; for inhibition at 0.01 µg/mL / inhibition at 0.1 µg/mL / inhibition at 1 µg/mL / inhibition at 5 µg/mL: Human immunodeficiency virus 1, H9, read-out: % Inhibition, p24.

Assay [4] relates to reverse transcriptase. As to the kind of experiment: microbe, parasite or virus in culture. To be noted: for activity at 0.01 µg/mL / activity at 0.1 µg/mL / activity at 1 µg/mL / activity at 5 µg/mL: Human immunodeficiency virus 1, H9, 96 h, read-out: % Viral Activity, RT; for inhibition at 0.01 µg/mL / inhibition at 0.1 µg/mL / inhibition at 1 µg/mL / inhibition at 5 µg/mL: Human immunodeficiency virus 1, H9, read-out: % Inhibition, RT. The class given is cell-based, HIV.

In assay [5] the test system is H9 cells. Description: Survival/viability of HIV-infected H9 cells (trypan blue exclusion), % control. To be noted: in vitro.

Several values for one entry are separate records, joined by “and”; a condition that tells them apart may be missing. Equal entries are not always repeated.

`C[C@@H]1[C@H](O)[C@@H](C)/C=C/C=C/CC/C=C/C=C/C=C/C=C/C(O[C@H]2O[C@H](C)[C@@H](O)[C@H](N)[C@@H]2O)CC2O[C@](O)(CC(O)C(O)CCC(O)CC(O)CC(O)CC(=O)O[C@H]1C)CC(O)C2C(=O)O` (stereo partly shown) [Nystatin, reference compound]: the “% Viral Activity, p17” value in assay [1] (h9 cells, 5760 min) is listed as 31%. Besides, the “usefulness in treatment of HIV infection (in words)” value in assay [2] was “useful in the treatment of HIV infection”. Also, the “% Viral Activity, p24” value in assay [3] is recorded as 21%.

On to `CC(C)C1OC(=O)/C=C/C=C/C=C/C=C/C=C/CC(O)C(C)C(O)CC(O)CC(O)CC(O)CC(O)CC(O)CC(O)/C=C/C1C` (stereo not shown) [Mycoticin A, reference compound], for which, in assay [1], the “% Inhibition, p17” value is 16% and 26% and 28%. In addition, the “% Inhibition, p24” value in assay [3] is 23% and 25% and 37%.

Take `CCC(C)C1OC(=O)/C=C/C=C/C=C/C=C/C=C/C=C/CC(O)C(C)C(O)CC(O)CC(O)CC(O)CC(O)CC(O)CC(O)CC(O)/C=C/C1C` (stereo not shown) [Dermostatin B]: in assay [1], the activity at 0.01 µg/mL was found to be 100%, the activity at 0.1 µg/mL was determined as 80%, the activity at 1 µg/mL is 8% and the activity at 5 µg/mL was found to be 4%. Further, in assay [1], the inhibition at 0.01 µg/mL amounted to 0%, the inhibition at 0.1 µg/mL was determined as 20%, the inhibition at 1 µg/mL came to 92% and the inhibition at 5 µg/mL turned out to be 96%. In addition, in assay [4], the activity at 0.01 µg/mL was determined as 100%, the activity at 0.1 µg/mL was determined as 92%, the activity at 1 µg/mL is 25% and the activity at 5 µg/mL came out at 13%. Further, in assay [4], the inhibition at 0.01 µg/mL was found to be 0%, the inhibition at 0.1 µg/mL was found to be 8%, the inhibition at 1 µg/mL came to 75% and the inhibition at 5 µg/mL turned out to be 87%. The “viability of cells in the presence of HIV (in words)” value in assay [5] is on record as “cell viability remains high over the tested range”. For the same compound, in assay [3], the activity at 0.01 µg/mL turned out to be 100%, the activity at 0.1 µg/mL was found to be 90%, the activity at 1 µg/mL was determined as 4% and the activity at 5 µg/mL came out at 3%. For the same compound, in assay [3], the inhibition at 0.01 µg/mL came to 0%, the inhibition at 0.1 µg/mL is 10%, the inhibition at 1 µg/mL was found to be 96% and the inhibition at 5 µg/mL came out at 97%.

Take `CCCCC[C@@H](O)[C@H]1C(=O)O[C@H](C)[C@@H](O)/C=C/C=C/C=C/C=C/C=C(\C)[C@@H](O)C[C@H](O)C[C@H](O)C[C@H](O)C[C@H](O)C[C@H](O)C[C@@H]1O` [Filipin]: the “% Inhibition, p24” value in assay [3] was 0%.

Regarding `C[C@@H]1[C@H](O)[C@@H](C)/C=C/C=C/CC/C=C/C=C/C=C/C=C/[C@H](O[C@@H]2O[C@H](C)[C@@H](O)[C@H](N)[C@@H]2O)C[C@@H]2O[C@](O)(C[C@@H](O)C[C@@H](O)[C@H](O)CC[C@@H](O)C[C@@H](O)CC(=O)O[C@H]1C)C[C@H](O)[C@H]2C(=O)O` [Amphotericin A, reference compound], the “% Viral Activity, RT” value in assay [4] (Table IV, conc. not printed (line between 10 and 0.1), added with HIV, 4 days) was determined as 78%. In addition, in assay [2], the “usefulness in treatment of HIV infection (in words)” value is recorded as “useful in the treatment of HIV infection”. In assay [3], the “% Viral Activity, p24” value is recorded as 36%.

Turning to `CC(C)C1OC(=O)/C=C/C=C/C=C/C=C/C=C/C=C/CC(O)C(C)C(O)CC(O)CC(O)CC(O)CC(O)CC(O)CC(O)CC(O)/C=C/C1C` (stereo not shown) [Dermostatin A], in assay [1], the activity at 0.01 µg/mL is 100%, the activity at 0.1 µg/mL came out at 100%, the activity at 1 µg/mL is 4% and the activity at 5 µg/mL amounted to 4%. Further, in assay [1], the inhibition at 0.01 µg/mL was 0%, the inhibition at 0.1 µg/mL worked out at 0%, the inhibition at 1 µg/mL is 96% and the inhibition at 5 µg/mL amounted to 96%. Further, in assay [4], the activity at 0.01 µg/mL came out at 100%, the activity at 0.1 µg/mL was found to be 80%, the activity at 1 µg/mL was 21% and the activity at 5 µg/mL amounted to 9%. Besides, in assay [4], the inhibition at 0.01 µg/mL worked out at 0%, the inhibition at 0.1 µg/mL came out at 20%, the inhibition at 1 µg/mL came to 79% and the inhibition at 5 µg/mL amounted to 91%. In addition, in assay [5], the “viability of cells in the presence of HIV (in words)” value is “cell viability remains high over the tested range”. In addition, in assay [3], the activity at 0.01 µg/mL was determined as 100%, the activity at 0.1 µg/mL was 100%, the activity at 1 µg/mL came out at 3% and the activity at 5 µg/mL is 3%. Also, in assay [3], the inhibition at 0.01 µg/mL came to 0%, the inhibition at 0.1 µg/mL came out at 0%, the inhibition at 1 µg/mL was determined as 97% and the inhibition at 5 µg/mL was 97%.

In the case of `CCCCC[C@@H](O)[C@H]1C(=O)O[C@H](C)[C@@H](O)/C=C/C=C/C=C/C=C/C=C(\C)[C@@H](O)[C@H](O)[C@H](O)C[C@H](O)C[C@H](O)C[C@H](O)C[C@H](O)C[C@@H]1O` [Lagosin], in assay [1], the “% Inhibition, p17” value is given as 17%. The “% Inhibition, RT” value in assay [4] turned out to be 0%.
